The other results are listed elsewhere or left out.
T1: LIN28A (human?, UniProt Q9H9Z2 1-209)
T1 sequence: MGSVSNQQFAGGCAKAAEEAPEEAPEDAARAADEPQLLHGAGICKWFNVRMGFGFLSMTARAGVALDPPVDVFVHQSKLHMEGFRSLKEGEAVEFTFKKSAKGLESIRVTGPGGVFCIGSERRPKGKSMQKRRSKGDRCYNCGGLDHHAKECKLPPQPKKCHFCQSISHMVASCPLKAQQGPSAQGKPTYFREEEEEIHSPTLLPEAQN

T2: CIRBP (Homo sapiens, UniProt Q14011 1-172)
T2 sequence: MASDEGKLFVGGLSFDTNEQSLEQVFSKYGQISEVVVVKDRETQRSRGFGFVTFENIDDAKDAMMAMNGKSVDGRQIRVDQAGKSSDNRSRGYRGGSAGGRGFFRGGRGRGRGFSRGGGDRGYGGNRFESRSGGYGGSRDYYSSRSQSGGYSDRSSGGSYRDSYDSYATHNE

T3: DHX36 (Homo sapiens, UniProt Q9H2U1 1-1008)
T3 sequence: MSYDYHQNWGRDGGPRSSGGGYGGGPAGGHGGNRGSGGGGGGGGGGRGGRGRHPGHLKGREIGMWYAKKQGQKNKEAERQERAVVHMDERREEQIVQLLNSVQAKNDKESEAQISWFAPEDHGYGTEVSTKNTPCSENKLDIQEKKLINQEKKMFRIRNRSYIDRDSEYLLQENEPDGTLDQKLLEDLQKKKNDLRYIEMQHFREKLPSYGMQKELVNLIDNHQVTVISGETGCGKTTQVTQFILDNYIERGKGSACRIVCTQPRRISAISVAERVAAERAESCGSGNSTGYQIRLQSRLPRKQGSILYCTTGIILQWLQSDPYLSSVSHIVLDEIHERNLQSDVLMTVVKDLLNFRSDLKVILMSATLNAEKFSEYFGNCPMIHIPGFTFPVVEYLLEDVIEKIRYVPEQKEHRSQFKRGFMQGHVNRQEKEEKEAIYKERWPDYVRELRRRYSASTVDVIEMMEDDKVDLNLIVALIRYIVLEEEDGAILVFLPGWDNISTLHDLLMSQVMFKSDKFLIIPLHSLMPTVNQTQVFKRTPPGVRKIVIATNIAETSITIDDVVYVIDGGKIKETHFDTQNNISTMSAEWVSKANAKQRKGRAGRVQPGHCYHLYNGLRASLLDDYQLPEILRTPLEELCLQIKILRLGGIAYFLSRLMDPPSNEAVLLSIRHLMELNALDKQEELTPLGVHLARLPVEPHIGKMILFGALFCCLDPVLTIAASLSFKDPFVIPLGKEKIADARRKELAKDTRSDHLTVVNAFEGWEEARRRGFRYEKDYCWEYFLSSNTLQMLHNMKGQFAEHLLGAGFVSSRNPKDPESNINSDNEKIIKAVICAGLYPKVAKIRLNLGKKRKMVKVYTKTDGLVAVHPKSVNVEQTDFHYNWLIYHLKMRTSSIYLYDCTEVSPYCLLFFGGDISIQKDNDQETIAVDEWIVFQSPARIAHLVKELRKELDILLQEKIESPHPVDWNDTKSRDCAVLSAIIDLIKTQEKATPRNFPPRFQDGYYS

B1: hsa-mir-4487 (structured_RNA)
RNA: GGGACCCACCGUUUGCUAGUCUACGGUAGGUGUACGAAGUUUCAGCAGCUGGCUGAAGGGCAGAAGGGAACUGUCCUUCAGCCAGAGGCUGAAGCUUCGUGCAC
B2: hsa-mir-424 (structured_RNA)
RNA: GGGAGAGGACCCUAUGGUUCACUGCACGGGUGUACGAAGUUUCAGCUUUGAAGUGUUCUAAAUGGUUCAAAGCUGAAGCUUCGUGCAC
B3: hsa-mir-6769b (structured_RNA)
RNA: GGGAGAGGCCAGAGAAUCAUUUACGGUCGGUGUACGAAGUUUCAGCAAGUGCCGUCCUCAUGAGCCCCUGCUGAAGCUUCGUGCAC
B4: hsa-mir-376a-1 (structured_RNA)
RNA: GGGAAAGCACUAUCCUAUUGCCGACCGGGGUGUACGAAGUUUCAGCUGAGUACAUUAUUUAUGAUUAAUCAGCUGAAGCUUCGUGCAC
B5: PARIS_ID32 (structured_RNA)
RNA: GGGAACGGGGACUAAGUGACAGCACCUUGGUGUACGAAGUUUCAGCUGGUCUUGUAAUUAAAAUUCAAACACUAUAGAAAAAGGCCAGCUGAAGCUUCGUGCAC
B6: hsa-mir-200b (structured_RNA)
RNA: GGGAAGCGUGGUAUCUAUAUCGUACAAGGGUGUACGAAGUUUCAGCAUUGGAUGGAGUCAGGUCUCUAAUGCUGAAGCUUCGUGCAC
B7: hsa-mir-5190 (structured_RNA)
RNA: GGGAGGGAGUUUCCCUUUCGACAUCAGCGGUGUACGAAGUUUCAGCAUGGUUAAUGUUCCACAGCCAGCUGAAGCUUCGUGCAC
B8: hsa-mir-296 (structured_RNA)
RNA: GGGACCGAUAUCGUGAGAGGACGAGUUGGGUGUACGAAGUUUCAGCCUGUUGUGCCUAAUUCAGAGGCUGAAGCUUCGUGCAC
B9: hsa-mir-4509-1_4509-3_4509-2 (structured_RNA)
RNA: GGGAAUGAUGGGAUCCAUAAGACCAGUCGGUGUACGAAGUUUCAGCUUUUCCCUUUCUCUUGCCCUGAAAGCUGAAGCUUCGUGCAC
B10: hsa-mir-370 (structured_RNA)
RNA: GGGAAACUUGACCAAGCGUGUAGAAUUUGGUGUACGAAGUUUCAGCAGUUACACAGCUCACGAGUGCCUGCUGAAGCUUCGUGCAC
B11: PARIS_ID19 (structured_RNA)
RNA: GGGCCAAUGUAAACUGAGUGGCAAUUAGGGUGUACGAAGUUUCAGCUAUAGAAAAAGGCCAUGUAGAAGAUAAAAGUUCCUCUAUAGCUGAAGCUUCGUGCAC
B12: hsa-mir-183 (structured_RNA)
RNA: GGGAACAACUUAGCGCACCUCCGUAUCAGGUGUACGAAGUUUCAGCUCACUGUGAACAGUCUCAGUCAGUGAGCUGAAGCUUCGUGCAC

Assays:
Assay in all cases: FOREST: bead pull-down of RNA structure library v1, barcode microarray; U1A/LIN28A: 20 mM HEPES pH 7.5, 80 mM KCl, 20 mM NaCl, 10% glycerol, 2 mM DTT, 0.1 ug/uL BSA, 4 C; BG4/CIRBP/DHX36: 10 mM Tris-HCl pH 7.5, 100 mM KCl (or LiCl),; high values mean tight binding
[1] = target: U1A (Homo sapiens, UniProt P09012)
[2] = target: T1, LIN28A
[3] = target: T2, CIRBP
[4] = target: T3, DHX36

Binder	binding signal [1] [z-score]	binding signal [2] [z-score]	binding signal [3] [z-score]	binding signal [4] [z-score]
B1	0.319	-1.17	-0.349	-0.295
B2	0.319	-1.81	-1.15	
B3	0.319	-0.217	0.726	0.635
B4	0.318	-0.299	-0.789	-1.31
B5	1.9	0.862	0.414	0.328
B6	0.318	0.329	-0.187	1.24
B7	0.317	-1.84	-1.52	0.494
B8	0.316	0.291	1.02	1.39
B9	0.315	-0.67	0.801	0.25
B10	0.314	0.225	0.0612	-0.563
B11	0.314	1.06	0.42	1.14
B12	0.314	-0.993	-0.988	-0.764
